Laboratory results: article PMC10540216, “Activity Guided Azide-methyllysine Photo-trapping for Substrate Profiling of Lysine Demethylases” (Journal of the American Chemical Society, 2023)
“Also recorded” adds a separate entry of the source.

Legend:
KDM4A-I71AzF [1] = experiment: Photo-crosslinking with TAMRA peptides, in-gel fluorescence; assay type: binding, human; conditions: 10 µM peptide, 20 µM protein, 365 nm UV, 30 minutes at 4 °C
Procedure: (dissolved in 50:50 0.1% TFA and acetonitrile) were combined on a MALDI plate. Samples were ionized using reflectron positive mode on Bruker Daltonics UltrafleXtreme MALDI TOF with detection carried out from 700-3500 m/z. Bruker Flex Analysis software was used to analyze the […]
9. Demethylase activity of AzF mutants on semi-synthetic histones
A demethylase activity assay was conducted to determine if KDM4A-I71AzF mutant was active towards semi-synthetic histones (H3KC4me3, H3KC9me3, H3KC36me3). The samples included 10 µM histone, 10 µM enzyme, 1 mM 2OG, 100 µM (NH4)2Fe(SO4)2, 2 mM L-ascorbic acid, 50 mM Tris pH 8.0 (degassed), 1 mM TCEP (freshly prepared) and 10% glycerol (v/v). The samples were incubated for 3 h at 37 °C and were then purified through a C-18 Sep-pak column (Waters, cat# WAT054955). The histones were concentrated by speed vacuum and analyzed for […]
10. Photo-crosslinking experiment with peptides and in-gel fluorescence For peptide photo-crosslinking experiments, 10 µM TAMRA-labeled H3K9me0 or H3K9me3 […]
peptide was mixed with 20 µM of wild type KDM4A or AzF variants in a buffer consisting of 2 […]
mM ascorbic acid, 50 mM tris pH 8.0, 50 μM Fe(NH4)2(SO4)2, 200 µM 2OG. Samples were […]
365nm 100% irradiated) for 30 minutes at 4 °C on ice. Negative controls were kept in dark on ice for the full 30 minutes. […]

KDM4A-I71AzF [2] = experiment: CASI: photo-crosslinking with HEK293T cell extracts, StrepTactin enrichment and LC-MS/MS proteomics; assay type: binding, human; conditions: sheet "Final results but with 0.01";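 also: lysates from HEK293T cells pretreated with a KDM4 inhibitor to raise proteome methylation, affinity-purified after ±UV, gel-resolved, trypsin-digested, with exclusive unique peptides per protein averaged per condition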

| Substance | crosslinking with KDM4A-I71AzF (KDM4A-I71AzF [1]) | Fold change (+UV/-UV) (KDM4A-I71AzF [2]) |
| --- | --- | --- |
| (5/6)-TA M R A-GGARTKQTARKSTGGKAPR [compound 7, TAMRA-labeled peptide carrying H3K9me0] | negligible crosslinking; also recorded: negligible compared to the TAMRA-H3K9me3 peptide | – |
| IF2B1_HUMAN | – | 0 |
